These results are taken from paper PMC9624268 (Translational Vision Science & Technology, 2022).

The format of this series is in vivo. The note with it: Dutch Belted, rabbit, choroid/BrM/RPE, po, 15 mg/kg.

Turning to `CC(=O)c1nn(CC(=O)N2C[C@H](F)C[C@H]2C(=O)Nc2cccc(Br)n2)c2ccc(-c3cnc(C)nc3)cc12` [Danicopan], the time of peak concentration (Tmax) was determined as 1 h.

As a reminder, the Tmax is the time at which the peak concentration occurs.
